Reference: ChEMBL document CHEMBL1140742, “Discovery of novel chemotypes to a G-protein-coupled receptor through ligand-steered homology modeling and structure-based virtual screening” (J Med Chem, 2008)

Protein sequences, listed by entry. Tags and fused reporters are not part of them. Lines headed by an entry give the natural chain unless they say otherwise; changes in a name come on top.
UniProt Q99705: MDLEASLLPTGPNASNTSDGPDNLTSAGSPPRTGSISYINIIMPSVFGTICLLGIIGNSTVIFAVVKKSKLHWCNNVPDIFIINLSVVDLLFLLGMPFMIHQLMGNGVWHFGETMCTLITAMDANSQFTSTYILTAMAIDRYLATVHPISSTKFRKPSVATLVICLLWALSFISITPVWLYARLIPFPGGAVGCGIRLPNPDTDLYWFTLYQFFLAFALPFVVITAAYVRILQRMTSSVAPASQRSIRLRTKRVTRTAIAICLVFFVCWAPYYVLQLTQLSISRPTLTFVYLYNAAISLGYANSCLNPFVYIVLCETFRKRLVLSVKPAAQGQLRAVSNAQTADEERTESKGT

Target: Melanin-concentrating hormone receptor 1 (Homo sapiens, UniProt Q99705)
Assay: Displacement of [125I]MCH from human MCHR1 expressed in CHO cell membranes at 5 ug/ml

O=C(NC(Sc1ccc(Cl)cc1)C(Cl)(Cl)Cl)Sc1ccc(Cl)cc1 (stereo unspecified)
inhibition: 17%
